# Values quoted from earlier work in patent US5976535A, “Pretargeting protocols for the enhanced localization of cytotoxins to target sites and cytotoxic combinations useful therefore” (NeoRx Corporation, priority 1995, dated 1999).
# Conditions: post-administration; cited from earlier work
substance,measurement,value
"IL-2: interleukin-2, molecular weight of 15,500 daltons, 133 amino acids",circulation half-life,about 10 minutes
